# Values of other authors as cited in patent US7521479B2 (priority 2001, dated 2009).
# The chains behind the UniProt entries cited, without tags or fusion partners. Residues count along the entry.
# UniProt P05067, 672-711 limits assumed: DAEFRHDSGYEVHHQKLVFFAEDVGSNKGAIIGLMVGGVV
# Molecular target: Aβ1-40 (Homo sapiens, UniProt P05067)
# Conditions: cited from earlier work
compound,measurement,value
O=C1C=CC(=O)C=C1 [p-benzoquinone],inhibition of Aβ1-40 aggregation and neurotoxicity,inhibit Aβ1-40 aggregation and neurotoxicity at comparable molar concentrations to rifampicin
